## Antibody variant affinities, Ab-14 light chain, assay B

Source: Li et al. 2023 (doi:10.1038/s41467-023-39022-2), MIT Lincoln Laboratory and A-Alpha Bio; data file from the FLAb repository.

The target is the same throughout: PDVDLGDISGINAS, from the HR2 region of SARS-CoV-2 spike.

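Phage display of a naive human antibody library on the peptide gave the parent. These sequences belong to a second round, designed from the earlier measurements on random variants of the parent. Their group label is 14L_GP_HC (GP: Gaussian process model; HC: hill climbing; a sequence that several methods proposed may carry one label only). The scFvs were displayed on barcoded MATa yeast, the peptide on MATalpha yeast. The frequency of each diploid, read from paired DNA barcodes, reflects how well the two displayed proteins bind. Read counts were normalised to the haploid input and turned into Kd by a linear fit to BCL2-family pairs of known affinity, for each replicate. Each pool was mated in six replicate cultures.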

Each scFv is VH, a 15-residue (Gly4Ser)3 linker, VL, as in the parent Ab-14, and differs from it in the CDRs of the light chain only.
VH: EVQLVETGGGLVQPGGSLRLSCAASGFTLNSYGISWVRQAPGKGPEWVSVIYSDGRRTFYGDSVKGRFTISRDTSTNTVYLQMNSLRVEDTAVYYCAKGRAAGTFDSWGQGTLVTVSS
VL: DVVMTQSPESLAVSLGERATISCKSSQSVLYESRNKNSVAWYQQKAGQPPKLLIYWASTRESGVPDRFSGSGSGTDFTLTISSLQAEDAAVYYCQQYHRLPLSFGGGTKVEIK

Substitutions are numbered in sequence along the VL above, starting at 1 (not Kabat). Scale: log10 of Kd in nM, estimated from mating counts; low values are strong binders.

| # | changes | replicates, log10 nM | signal with controls |
|---|---|---|---|
| 1 | Q27I+V29Y+Y31I+W56E+S62L | 1.29 0.98 0.44 0.60 0.88 0.73 | 2/18 (2.24) |
| 2 | Q27I+V29Y+K36I+W56E+S62Q | 0.14 0.42 0.38 -0.34 0.34 0.73 | 2/18 (2.91) |
| 3 | Q27G+V29G+N35M+W56E | 0.10 -0.02 -0.31 -0.19 -0.02 0.26 | 1/18 (3.84) |
| 4 | S26P+S28G+N35V+W56G | 0.01 0.19 0.23 0.17 0.19 0.19 | 0/18 |
| 5 | S25F+S28W+N35T+W56N+S62E | 0.18 0.08 -0.08 -0.14 -0.15 0.07 | 1/18 (3.44) |
| 6 | Q27I+V29T+N35M+W56E | 0.15 0.80 2.33 1.09 1.08 0.91 | 0/18 |
| 7 | S26L+S28M+V29W+W56H+S62D+R99Q | 0.69 0.42 0.24 0.21 0.84 0.60 | 0/18 |
| 8 | V29W+W56H+E61M+S62Q | 0.18 -0.01 -0.06 -0.03 -0.14 -0.08 | 0/18 |
| 9 | S25M+S26L+V29W+W56H+S62Q | 0.65 0.67 0.77 0.37 0.62 0.70 | 3/18 (2.88) |
| 10 | Q27K+Y31F+W56N+S62K | 1.10 0.88 0.93 0.97 1.11 1.20 | 0/18 |
| 11 | S25M+S26E+S28G+L30P+N37G+W56G+T59V | 0.65 0.43 0.53 0.42 0.80 0.87 | 0/18 |
| 12 | S25M+S26E+S28G+N37Q+W56G+T59V | 0.07 0.02 -0.16 -0.16 -0.23 -0.22 | 2/18 (3.19) |
| 13 | S25V+Q27F+V29Y+Y31L+W56E | 0.40 0.24 0.03 0.22 0.33 0.42 | 2/18 (2.60) |
| 14 | V29H+K36F+W56G | 0.22 0.24 0.33 0.07 0.30 0.11 | 1/18 (4.21) |
| 15 | V29E+S33D+N35V+W56G | 0.32 -0.13 0.06 -0.28 -0.04 -0.07 | 2/18 (2.59) |
| 16 | Q27G+V29E+Y31F+W56D | 0.37 0.58 0.69 0.50 0.15 0.37 | 1/18 (2.71) |
| 17 | V29D+W56G+S62N | 0.13 -0.26 -0.25 -0.50 -0.18 -0.30 | 0/18 |
| 18 | R34A+W56N+E61M | 0.39 0.38 0.30 0.19 0.20 0.52 | 0/18 |
| 19 | K24H+Q27P+K36G+S38N+W56N | -0.19 -0.10 -0.27 -0.42 -0.07 -0.09 | 3/18 (3.19) |
| 20 | K24R+S25Q+W56G | -0.19 -0.28 -0.36 -0.54 -0.49 -0.16 | 2/18 (2.95) |
| 21 | V29Y+Y31G+W56E | 0.69 0.43 0.58 0.27 0.18 0.54 | 1/18 (2.34) |
| 22 | Q27M+S28C+V29F+W56G | 0.64 0.54 0.18 0.47 0.44 0.37 | 2/18 (2.66) |
| 23 | S25H+Y31N+W56D | 0.06 0.06 -0.07 -0.11 -0.06 0.09 | 1/18 (3.37) |
| 24 | Y31G+S33E+W56D | 0.63 0.48 0.91 0.25 0.34 0.36 | 0/18 |
| 25 | S25L+S26R+V29Q+W56L | 0.65 0.61 0.55 0.57 0.54 0.72 | 0/18 |
| 26 | S25A+V29W+S33D+N35V+W56G | 0.06 0.51 0.20 0.34 0.19 0.29 | 1/18 (2.45) |
| 27 | S25L+S26P+W56H+S62D+Q96D | 0.06 -0.25 -0.16 -0.40 -0.29 -0.03 | 2/18 (1.65) |
| 28 | S25Q+S28E+V29E+W56D | -0.27 -0.27 -0.24 -0.10 -0.08 -0.22 | 2/18 (2.49) |
| 29 | Q27H+V29Y+Y31E+W56E | 0.47 1.47 1.14 0.77 1.12 1.11 | 0/18 |
| 30 | S25F+N35A+K36S+S38R+W56N | 0.75 0.26 0.54 0.55 0.60 0.57 | 3/18 (1.96) |
| 31 | S26Y+Q27Y+V29F+W56E | 0.54 0.20 0.43 0.08 0.23 0.78 | 0/18 |
| 32 | K24H+Q27P+K36G+W56N | 0.29 -0.08 0.08 -0.15 -0.31 0.05 | 0/18 |
| 33 | V29W+W56G+T59C+S62V | 0.40 0.26 0.16 0.14 0.12 0.36 | 0/18 |
| 34 | Q27I+V29Y+R34V+K36T+W56E | 0.49 0.27 0.02 0.36 0.25 0.67 | 0/18 |
| 35 | S26P+S28G+W56G | 0.47 0.17 0.12 0.02 0.15 0.02 | 1/18 (1.43) |
| 36 | K24H+Q27P+L30E+W56N+T59Q | 0.09 0.21 0.04 0.12 0.06 0.13 | 0/18 |
| 37 | S25M+L30K+Y31F+W56D | -0.11 -0.13 -0.28 -0.34 -0.16 -0.21 | 1/18 (2.65) |
| 38 | Q27P+R34G+W56N+E61M | 0.60 0.71 0.09 0.54 0.62 0.47 | 2/18 (2.12) |
| 39 | V29W+W56G+S62R | 0.13 0.18 0.13 0.00 0.03 0.18 | 4/18 (3.29) |

A sequence measured in both rounds can read differently, since the two assays cover different ranges. The parent sequence was in this pool as ten entries: three were never detected, three once, and four in most replicates, with averages from 0.34 to 2.37. In the paper, a design with two or fewer of six values counts as a poor binder. Three control strains display no target. For all light chain designs, 4% of the pairings with them gave a signal, with a median of 2.64 and one signal in twenty below 1.59, so weak values seen in few replicates may be background. Also given: how often the same scFv was detected with the empty control strains, with their mean in brackets.